Legend:
[1] = biological target: T1, TRPA1 (Rattus norvegicus, UniProt Q6RI86); experiment: cell-based; conditions: EC50 of CGRP release
T1 construct: TRPA1 natively expressed on the central terminals of dorsal root ganglion neurons; from tissue; host or cells: lumbar spinal cord homogenate (synaptosomes) of adult male Sprague Dawley rats

By UniProt entry, the sequences of proteins in these tests, tags left out.
UniProt Q6RI86, whole entry: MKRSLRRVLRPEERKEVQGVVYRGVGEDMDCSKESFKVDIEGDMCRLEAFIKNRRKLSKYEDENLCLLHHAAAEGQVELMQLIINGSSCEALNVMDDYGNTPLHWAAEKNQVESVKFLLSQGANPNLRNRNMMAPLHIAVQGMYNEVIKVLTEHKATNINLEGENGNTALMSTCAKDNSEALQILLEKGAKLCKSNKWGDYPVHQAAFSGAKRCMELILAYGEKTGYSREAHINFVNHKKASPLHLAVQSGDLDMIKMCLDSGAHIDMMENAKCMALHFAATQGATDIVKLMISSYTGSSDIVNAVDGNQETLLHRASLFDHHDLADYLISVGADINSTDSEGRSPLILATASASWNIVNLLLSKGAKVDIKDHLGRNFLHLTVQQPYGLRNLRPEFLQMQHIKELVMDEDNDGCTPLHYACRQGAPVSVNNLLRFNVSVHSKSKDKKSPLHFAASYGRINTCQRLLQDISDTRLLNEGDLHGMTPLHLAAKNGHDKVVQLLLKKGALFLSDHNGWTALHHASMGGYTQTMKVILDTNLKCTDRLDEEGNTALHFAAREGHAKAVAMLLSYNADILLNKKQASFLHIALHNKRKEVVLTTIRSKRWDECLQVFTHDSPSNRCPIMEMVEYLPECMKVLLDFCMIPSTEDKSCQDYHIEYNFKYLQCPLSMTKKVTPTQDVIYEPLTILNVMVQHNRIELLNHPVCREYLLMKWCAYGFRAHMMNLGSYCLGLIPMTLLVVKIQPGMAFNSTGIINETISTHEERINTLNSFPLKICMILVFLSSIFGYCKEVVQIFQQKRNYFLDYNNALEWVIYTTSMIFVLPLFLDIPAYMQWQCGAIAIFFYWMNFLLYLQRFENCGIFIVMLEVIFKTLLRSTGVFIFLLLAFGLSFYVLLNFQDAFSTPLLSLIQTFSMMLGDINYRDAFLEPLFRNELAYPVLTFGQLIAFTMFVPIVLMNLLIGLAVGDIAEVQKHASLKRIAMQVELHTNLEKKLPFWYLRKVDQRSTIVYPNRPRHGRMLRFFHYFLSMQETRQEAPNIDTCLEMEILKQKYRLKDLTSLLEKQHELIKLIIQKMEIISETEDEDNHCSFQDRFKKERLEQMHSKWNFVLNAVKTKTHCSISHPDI

[2] = tested on: opioid receptors; conditions: 10 μmol/L morphine, NS

| SMILES | EC50 [1] [µM] | CGRP release evoked by 40 mmol/L KCl in the presence of morphine ([2]; 40 mmol/L KCl) [% over basal release] | CGRP release evoked by 60 mmol/L KCl in the presence of morphine ([2]; 60 mmol/L KCl) [% over basal release] |
| --- | --- | --- | --- |
| C=CCN=C=S [AITC, allyl‐isothiocyanate] | 17.1 ± 0.77 | – | – |
| CN1CC[C@]23c4c5ccc(O)c4O[C@H]2[C@@H](O)C=C[C@H]3[C@H]1C5 [morphine] | – | 62 ± 5 | 103 ± 6 |

From publication PMC4777244, “Activation of transient receptor potential ankyrin 1 induces CGRP release from spinal cord synaptosomes” (Pharmacology Research & Perspectives, 2015)
